Experimental data: ChEMBL document CHEMBL5727992, “3-((hetero-)aryl)-8-amino-2-oxo-1,3-diaza-spiro-[4.5]-decane derivatives” (2020)

Sequences of proteins named here, by UniProt entry; tags and fusion partners are left off.
UniProt P35372, whole entry, looked up: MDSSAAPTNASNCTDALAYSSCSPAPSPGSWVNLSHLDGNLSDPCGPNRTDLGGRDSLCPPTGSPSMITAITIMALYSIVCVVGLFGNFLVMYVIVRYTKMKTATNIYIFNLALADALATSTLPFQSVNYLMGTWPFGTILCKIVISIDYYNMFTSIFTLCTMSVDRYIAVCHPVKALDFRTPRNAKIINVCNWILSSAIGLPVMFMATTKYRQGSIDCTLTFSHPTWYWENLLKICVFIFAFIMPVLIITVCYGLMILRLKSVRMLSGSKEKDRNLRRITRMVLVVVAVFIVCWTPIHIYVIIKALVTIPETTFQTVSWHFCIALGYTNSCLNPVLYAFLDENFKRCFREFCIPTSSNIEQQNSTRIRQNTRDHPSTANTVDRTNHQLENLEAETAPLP

Experiments:
[1] = Receptor Binding Assay: NOP:The hNOP receptor binding assay was performed as homogeneous SPA-assay (scintillation proximity assay) using the assay buffer 50 mM TRIS-HCl. 10 mM MgCl2. 1 mM EDTA (pH 7.4). The final assay volume (250 μl/well) included 0.5 nM of [leucyl-3H]nociceptin as ligand (PerkinElmer Life Sciences. Inc. Boston. Mass. USA). and either test compound in dilution series or 1 μM unla
[2] = target: Mu-type opioid receptor (Homo sapiens, UniProt P35372); test: Receptor Binding Assay: MOP: The hMOP receptor binding assay was performed as homogeneous SPA-assay (scintillation proximity assay) using the assay buffer 50 mM TRIS-HCl (pH 7.4) supplemented with 0.052 mg/ml bovine serum albumin (Sigma-Aldrich Co. St. Louis. Mo.). The final assay volume (250 μl/well) included 1 nM of [N-allyl-2.3-3H]naloxone as ligand (PerkinElmer Life Sciences. Inc. Boston. Mass

Row | SMILES | Ki [1] | Ki [2]
1 | CN(C)[C@]1(c2ccccc2)CC[C@]2(CC1)CN(CC(C)(C)C(N)=O)C(=O)N2CC1CC1 | 23 nM | 480 nM
2 | CN(C)[C@]1(c2ccccc2)CC[C@@]2(CC1)CN(CC(C)(C)C(N)=O)C(=O)N2 | 340 nM | 790 nM
3 | CN(C)[C@]1(c2ccccc2)CC[C@]2(CC1)CN(CCC(=O)Nc1ncccn1)C(=O)N2CC1(O)CCC1 | 14.5 nM | 245 nM
4 | CN(C)[C@]1(c2ccccc2)CC[C@]2(CC1)CN(CCC(N)=O)C(=O)N2CC1(O)CCC1 | – | 118 nM
5 | CCN(C)[C@]1(c2ccccc2)CC[C@]2(CC1)CN(CC(C)(C)C(N)=O)C(=O)N2CC1CCC1 | 19 nM | 910 nM
6 | CNC(=O)CCN1C[C@]2(CC[C@](c3ccccc3)(N(C)CC(C)C)CC2)N(CC2CCC2)C1=O | 1200 nM | –
7 | COCCCN1C(=O)N(CCC(=O)N2CCC[C@@H]2C(N)=O)C[C@]12CC[C@](c1ccccc1)(N(C)C)CC2 | 70.5 nM | 190 nM
8 | COCCCN1C(=O)N(CC(C)(C)C(N)=O)C[C@]12CC[C@](c1ccccc1)(N(C)C)CC2 | 130 nM | 1190 nM
9 | CN(C)[C@]1(c2ccccc2)CC[C@]2(CC1)CN(CC(C)(C)C(N)=O)C(=O)N2CC1(O)CCC1 | 19.5 nM | 545 nM
10 | CN(C)[C@]1(c2ccccc2)CC[C@]2(CC1)CN(CCC(=O)NCc1cnco1)C(=O)N2CC1CCC1 | 5.8 nM | –
11 | CNC(=O)CCN1C[C@]2(CC[C@](c3ccccc3)(N(C)C)CC2)N(CC2(O)CCC2)C1=O | 12 nM | 250 nM
12 | COc1ccc(NC(=O)CCN2C[C@]3(CC[C@](c4ccccc4)(N(C)C)CC3)N(CC3CCC3)C2=O)nn1 | – | 24.5 nM
13 | CN(C)[C@]1(c2ccccc2)CC[C@]2(CC1)CN(CCC(=O)NC1COC1)C(=O)N2CC1(O)CCC1 | 11.5 nM | 74 nM
14 | CN(C)[C@]1(c2ccccc2)CC[C@]2(CC1)CN(CCC(=O)NCc1ncco1)C(=O)N2CC1CCC1 | – | 8.2 nM
15 | CN[C@]1(c2ccccc2)CC[C@]2(CC1)CN(CCC(=O)NC1COC1)C(=O)N2CC1(O)CCC1 | 112 nM | 88.5 nM
16 | COc1cc(NC(=O)CCN2C[C@]3(CC[C@](c4ccccc4)(N(C)C)CC3)N(CC3CCC3)C2=O)ccn1 | – | 44.5 nM
17 | CN(C)[C@]1(c2ccccc2)CC[C@]2(CC1)CN(CCC(N)=O)C(=O)N2CC1CCC1 | 5.8 nM | 69 nM
18 | CN[C@]1(c2ccccc2)CC[C@]2(CC1)CN(CCC(=O)Nc1cccnn1)C(=O)N2CC1(O)CCC1 | 20 nM | 810 nM
19 | CCN[C@]1(c2ccccc2)CC[C@]2(CC1)CN(CC(C)(C)C(N)=O)C(=O)N2CC1CCC1 | 625 nM | 2850 nM
20 | CN(C)[C@]1(c2ccccc2)CC[C@]2(CC1)CN(CCC(=O)Nc1ccc(S(C)(=O)=O)nc1)C(=O)N2CC1CCC1 | – | 43.5 nM
21 | CN(C)[C@]1(c2ccccc2)CC[C@]2(CC1)CN(CCC(=O)Nc1ccncc1)C(=O)N2CC1(O)CCC1 | 8 nM | 40 nM

Row | SMILES | Ki [1] | Ki [2]
22 | CNC1(c2ccccc2)CCC2(CC1)CN(CC(C)(C)C(N)=O)C(=O)N2CC1CCC1 (configuration not stated) | – | 555 nM
23 | CN(C)[C@]1(c2ccccc2)CC[C@]2(CC1)CN(CCC(=O)Nc1cccnc1)C(=O)N2CC1(O)CCC1 | – | 140 nM
24 | CN(C)[C@]1(c2ccccc2)CC[C@]2(CC1)CN(CCC(=O)N1C[C@H](O)[C@@H](O)C1)C(=O)N2CC1CCC1 | 10.6 nM | –
25 | CN(C)C(=O)CCN1C[C@]2(CC[C@](c3cccc(F)c3)(N(C)C)CC2)N(CC2CC2)C1=O | 22 nM | 610 nM
26 | CN[C@]1(c2ccccc2)CC[C@]2(CC1)CN(CCC(N)=O)C(=O)N2CC1(O)CCC1 | 140 nM | 895 nM
27 | COc1ccc(NC(=O)CCN2C[C@]3(CC[C@](c4ccccc4)(N(C)C)CC3)N(CC3CCC3)C2=O)nc1 | – | 25 nM
28 | CN(C)[C@]1(c2ccccc2)CC[C@]2(CC1)CN(CCC(=O)Nc1cnc(C#N)nc1)C(=O)N2CC1(O)CCC1 | – | 99.5 nM
29 | CN(C)[C@]1(c2ccccc2)CC[C@]2(CC1)CN(CC(C)(C)C(N)=O)C(=O)N2 | 245 nM | 7340 nM
30 | CN(C)[C@]1(c2ccccc2)CC[C@]2(CC1)CN(CC(C)(C)C(N)=O)C(=O)N2CC1CCC1 | – | 113 nM
31 | CN(C)[C@]1(c2ccccc2)CC[C@]2(CC1)CN(CCC(=O)NCCO)C(=O)N2CC1(O)CCC1 | 18.5 nM | 160 nM
32 | COCCCN1C(=O)N(CCC(=O)NC(C)(C)C(N)=O)C[C@]12CC[C@](c1ccccc1)(N(C)C)CC2 | 72.5 nM | –
33 | CN(C)[C@]1(c2ccccc2)CC[C@@]2(CC1)CN(CC(C)(C)C(N)=O)C(=O)N2CC1(O)CCC1 | 815 nM | 4030 nM
34 | CN(C)[C@]1(c2ccccc2)CC[C@]2(CC1)CN(CCC(=O)N1CCCC(O)C1)C(=O)N2CC1CCC1 (some centres not stated) | – | 7.6 nM
35 | CN(C)[C@]1(c2ccccc2)CC[C@]2(CC1)CN(CCC(=O)N1C[C@@H](O)[C@@H](O)C1)C(=O)N2CC1CCC1 | 11.4 nM | 31 nM
36 | CN(C)[C@]1(c2ccccc2)CC[C@]2(CC1)CN(CC(C)(C)C(N)=O)C(=O)N2CC1COC1 | 150 nM | 4670 nM
37 | CN(C)[C@]1(c2ccccc2)CC[C@]2(CC1)CN(CC(C)(C)C(=O)NCCO)C(=O)N2CC1(O)CCC1 | 15 nM | 485 nM
38 | COCCN1C(=O)N(CCC(=O)NCCO)C[C@]12CC[C@](c1ccccc1)(N(C)C)CC2 | 195 nM | 510 nM
39 | CN(C)[C@]1(c2ccccc2)CC[C@]2(CC1)CN(CC(C)(C)C(=O)NCC(N)=O)C(=O)N2CC1CCC1 | – | 64 nM
40 | CN(C)[C@]1(c2cccc(F)c2)CC[C@]2(CC1)CN(CC(C)(C)C(N)=O)C(=O)N2CC1CC1 | 12 nM | 2480 nM
41 | CN(C)[C@]1(c2ccccc2)CC[C@]2(CC1)CN(CCC(=O)Nc1cncnc1)C(=O)N2CC1(O)CCC1 | – | 320 nM
42 | COCCN1C(=O)N(CCC(=O)Nc2cncnc2)C[C@]12CC[C@](c1ccccc1)(N(C)C)CC2 | 48.5 nM | 1030 nM

Row | SMILES | Ki [1] | Ki [2]
43 | COCCCN1C(=O)N(CCC(=O)N2CCNC(=O)C2)C[C@]12CC[C@](c1ccccc1)(N(C)C)CC2 | 63.5 nM | 445 nM
44 | CN(C)[C@]1(c2ccccc2)CC[C@]2(CC1)CN(CCC(=O)N1CCn3ncnc3C1)C(=O)N2CC1CCC1 | – | 49 nM
45 | CN(C)[C@]1(c2ccccc2)CC[C@]2(CC1)CN(CC(C)(C)C(=O)N1CCS(=O)(=O)CC1)C(=O)N2CC1(O)CCC1 | 12 nM | 510 nM
46 | CN(C)[C@]1(c2ccccc2)CC[C@]2(CC1)CN(CCC(=O)Nc1cccnn1)C(=O)N2CC1(O)CCC1 | – | 410 nM
47 | COCCCN1C(=O)N(CCC(=O)NCC(N)=O)C[C@]12CC[C@](c1ccccc1)(N(C)C)CC2 | 101 nM | 210 nM
48 | CNC(=O)CCN1C[C@]2(CC[C@@](NC)(c3ccccc3)CC2)N(CC2(O)CCC2)C1=O | 205 nM | 1630 nM
49 | COCCN1C(=O)N(CC(C)(C)C(N)=O)C[C@]12CC[C@](c1ccccc1)(N(C)C)CC2 | 230 nM | 815 nM
50 | CN(C)[C@]1(c2ccccc2)CC[C@]2(CC1)CN(CCC(=O)Nc1ccccn1)C(=O)N2CC1(O)CCC1 | 5.6 nM | 160 nM
51 | COc1cncc(NC(=O)CCN2C[C@]3(CC[C@](c4ccccc4)(N(C)C)CC3)N(CC3CCC3)C2=O)n1 | – | 19 nM
52 | CN(C)[C@]1(c2ccccc2)CC[C@]2(CC1)CN(CCC(=O)Nc1nccc(O)n1)C(=O)N2CC1(O)CCC1 | – | 160 nM
53 | CCN(C)[C@]1(c2ccccc2)CC[C@]2(CC1)CN(CC(C)(C)C(N)=O)C(=O)N2CC1(O)CCC1 | 260 nM | 2610 nM
54 | COCCCN1C(=O)N(CCC(=O)NCCO)C[C@]12CC[C@](c1ccccc1)(N(C)C)CC2 | 116 nM | 395 nM
55 | CN(C)[C@]1(c2ccccc2)CC[C@]2(CC1)CN(CCC(=O)Nc1ccc(S(C)(=O)=O)cn1)C(=O)N2CC1CCC1 | – | 66 nM
56 | CN[C@]1(c2ccccc2)CC[C@]2(CC1)CN(CC(C)(C)C(=O)NCC(N)=O)C(=O)N2CC1CCC1 | – | 124 nM
57 | CN[C@]1(c2ccccc2)CC[C@]2(CC1)CN(CCC(=O)NCCO)C(=O)N2CC1(O)CCC1 | 215 nM | 1200 nM
58 | CN(C)[C@]1(c2ccccc2)CC[C@]2(CC1)CN(CCC(=O)NCC1(O)CCC1)C(=O)N2CC1CCC1 | 3.2 nM | –
59 | CNC(=O)CCN1C[C@]2(CC[C@](c3ccccc3)(N(C)C)CC2)N(CCOC)C1=O | 220 nM | 1130 nM
60 | CN(C)[C@]1(c2ccccc2)CC[C@]2(CC1)CN(CC(C)(C)C(N)=O)C(=O)N2CC1(C#N)CCC1 | – | 180 nM
61 | COc1ccnc(NC(=O)CCN2C[C@]3(CC[C@](c4ccccc4)(N(C)C)CC3)N(CC3(O)CCC3)C2=O)n1 | – | 130 nM
62 | COc1cnccc1NC(=O)CCN1C[C@]2(CC[C@](c3ccccc3)(N(C)C)CC2)N(CC2CCC2)C1=O | – | 46.5 nM
